Experimental data reported in patent US20230286983A1 (4E Therapeutics, Inc., priority 2020, published 2023).

Sequences of proteins named here, by UniProt entry; tags and fusion partners are left off. A change or cut given only in a name is not applied to a line headed by its entry.
UniProt Q9HBH9: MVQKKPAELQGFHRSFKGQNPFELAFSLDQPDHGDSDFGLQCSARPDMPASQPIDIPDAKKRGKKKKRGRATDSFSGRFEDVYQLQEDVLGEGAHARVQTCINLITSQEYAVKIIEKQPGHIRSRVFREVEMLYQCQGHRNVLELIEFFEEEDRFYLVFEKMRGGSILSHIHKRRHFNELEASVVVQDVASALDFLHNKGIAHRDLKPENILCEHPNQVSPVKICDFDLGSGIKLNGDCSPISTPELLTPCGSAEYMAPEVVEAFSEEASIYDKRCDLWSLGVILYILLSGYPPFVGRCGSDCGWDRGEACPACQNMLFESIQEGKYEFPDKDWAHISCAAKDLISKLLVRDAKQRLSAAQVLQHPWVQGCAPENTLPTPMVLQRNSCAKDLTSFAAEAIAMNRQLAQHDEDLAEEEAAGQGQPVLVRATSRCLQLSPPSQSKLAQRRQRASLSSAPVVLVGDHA
UniProt Q9BUB5: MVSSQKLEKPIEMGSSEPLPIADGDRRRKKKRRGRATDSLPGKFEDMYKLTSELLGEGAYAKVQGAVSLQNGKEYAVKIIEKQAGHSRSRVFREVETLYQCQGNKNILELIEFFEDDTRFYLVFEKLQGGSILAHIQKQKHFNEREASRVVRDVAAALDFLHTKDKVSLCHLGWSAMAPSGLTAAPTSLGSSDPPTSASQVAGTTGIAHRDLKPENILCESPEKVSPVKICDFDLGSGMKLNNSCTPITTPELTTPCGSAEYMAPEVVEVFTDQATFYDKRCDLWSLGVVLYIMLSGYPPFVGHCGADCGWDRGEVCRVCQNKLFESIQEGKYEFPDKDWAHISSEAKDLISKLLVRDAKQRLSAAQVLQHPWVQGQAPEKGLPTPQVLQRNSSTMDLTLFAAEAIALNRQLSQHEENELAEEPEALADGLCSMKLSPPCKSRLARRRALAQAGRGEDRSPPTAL

What was measured:
P-gp (human MDR1, ABCB1) = assay: MDCK-MDR1 permeability (blood brain barrier permeability); type: in vitro ADME, Canine; conditions: dog, MDCK-MDR1, 5 μM; read-out: Efflux ratio (ratio B-A/A-B)
Procedure: In particular, the study was conducted in Madin Darby Canine Kidney (MDCK) cells that express the MDR1 gene (ABCB1) that encodes for the efflux protein, P-gp. MDCK-MDR1 is a stable-transfected cell line originating from MDCK cells, with over-expression of human MDR1 gene. Because MDCK-MDR1 permeability correlates well with brain exposure it is often utilized predictor of blood-brain-barrier penetration.
Apparent permeability (Papp) values are calculated using the following equation: […]
where dQ/dt is the initial rate of amount of test compound transported across cell monolayer, A is the surface area of the filter membrane, and C0 is the initial concentration of the test compound, calculated for each direction using a 4-point calibration curve by LC-MS/MS. Net flux ratio between the two directional transports was calculated by the following equation: […]
where Papp, B−A and Papp, A−B represent the apparent permeability of test compound from the basal to apical and apical to basal side of the cellular monolayer, respectively.

MNK2 = MNK2 (Homo sapiens, UniProt Q9HBH9); assay: MNK2 substrate phosphorylation assay; type: biochemical; conditions: recombinant human kinase
MNK1 = MNK1 (Homo sapiens, UniProt Q9BUB5); assay: MNK1 substrate phosphorylation assay; type: biochemical; conditions: recombinant human kinase

With `Cc1cc(Nc2cc(NC(=O)C3CC3)ncn2)c(=O)n2c1C(=O)NC21CCCC1` [Compound 4ET-03-017, N-(6-((8′-Methyl-1′,5′-dioxo-1′,5′-dihydro-2′H-spiro[cyclopentane-1,3′-imidazo[1,5-a]pyridin]-6′-yl)amino)pyrimidin-4-yl)cyclopropanecarboxamide] the efflux ratio at 5 μM (P-gp (human MDR1, ABCB1)) was 3.6, the IC50 (MNK2) was 0.003 µM and the IC50 (MNK1) was 0.0743 µM.
